Data taken from patent US4056540A, “4-Phenyl-1,3-benzodioxans” (Bristol-Myers Company, priority 1975, dated 1977).

Assay: in vivo
Conditions: mouse, po, 24 hours observation

## O=C1NC(=O)C(c2ccccc2)(c2ccccc2)N1 [Diphenylhydantoin Na, reference compound]
  LD50 at 24 h: 540 mg/kg
